Results reported in PubChem BioAssay AID602329 (Broad Institute, 2012).
The list shows a part of the results, in another mix than the full data. The source made the active and inactive calls.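 The calls were made as follows: active = mean normalized replicate activity at least 40 and at least half of replicates scoring 40 or more; inconclusive = only one of the two criteria met; inactive = mean below 40 and under half of replicates reaching 40.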

Sequences of proteins named here, by UniProt entry; tags and fusion partners are left off. A change or cut given only in a name is not applied to a line headed by its entry.
UniProt Q92698: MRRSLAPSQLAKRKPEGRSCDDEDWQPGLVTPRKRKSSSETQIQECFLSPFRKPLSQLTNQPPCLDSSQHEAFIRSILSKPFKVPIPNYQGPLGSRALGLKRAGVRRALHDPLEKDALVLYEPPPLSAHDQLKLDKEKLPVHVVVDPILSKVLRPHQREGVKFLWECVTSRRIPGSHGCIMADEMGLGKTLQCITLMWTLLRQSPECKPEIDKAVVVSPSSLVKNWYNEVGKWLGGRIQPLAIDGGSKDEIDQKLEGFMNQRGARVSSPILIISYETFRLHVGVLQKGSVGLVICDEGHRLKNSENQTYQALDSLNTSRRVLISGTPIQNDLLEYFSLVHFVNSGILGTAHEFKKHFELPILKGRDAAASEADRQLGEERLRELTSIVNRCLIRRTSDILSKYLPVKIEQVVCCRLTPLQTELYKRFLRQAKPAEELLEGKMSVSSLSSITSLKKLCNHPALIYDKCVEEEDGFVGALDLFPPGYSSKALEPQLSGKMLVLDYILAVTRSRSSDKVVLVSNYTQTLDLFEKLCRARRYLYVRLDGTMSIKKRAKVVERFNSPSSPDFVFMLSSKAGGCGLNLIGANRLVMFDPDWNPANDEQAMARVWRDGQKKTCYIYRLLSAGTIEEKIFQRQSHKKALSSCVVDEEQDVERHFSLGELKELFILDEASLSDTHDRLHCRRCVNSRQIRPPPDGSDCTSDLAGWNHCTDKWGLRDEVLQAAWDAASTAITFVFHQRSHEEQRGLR

Molecular target: DNA repair and recombination protein RAD54-like (Homo sapiens) (UniProt Q92698)
Test: inhibitors of human RAD54 branch migration, primary screen, biochemical, fluorescence, single point (AID 602329);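 also: 0% = median of neutral control wells and 100% = median of positive control wells; inhibitors cause a drop in the FAM fluorescence signal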
Settings: RAD54 Holliday junction branch migration, FAM/BHQ fluorescence; at 10.4 µM; hits give high values

SMILES | inhibition
Cc1ccc(OP(=O)(Nc2ccc([N+](=O)[O-])cn2)Oc2ccc(C)cc2)cc1 | inactive: -6.65%
C[As](=O)(O)c1cccc(C(=O)O)c1 | inactive: 5.62%
O=[As](O)(c1ccc(O)cc1)c1ccccc1O | inactive: -2.88%
O=[N+]([O-])c1ccc(-c2cc([N+](=O)[O-])c(O)c([N+](=O)[O-])c2)cc1 | inactive: -6.1%
CCN(CC)C(=S)SC(NC=O)C(Cl)(Cl)Cl (centres undefined) | inactive: -2.23%
O=C(OC1CN2CCC1CC2)c1cccc2[nH]cnc12 (centres undefined) | inactive: 11.5%
ClCCSc1nnc(-c2cccnc2)o1 | inactive: 7.59%
CC(C)c1ccc(OP(=O)(Nc2ccccn2)Oc2ccccc2F)cc1 (centres undefined) | inactive: -13.4%
O=P1(N(CCCl)CCCl)Nc2ccccc2N1 | inactive: -0.344%
COc1ccc(CN2/C(=N\P(=O)(Oc3ccccc3)Oc3ccccc3)Cc3ccccc3C2C2CC2)cc1 (centres undefined) | inactive: 0.0625%
COc1cc(I)ccc1[As](=O)(O)O | inactive: -2.78%
O=C(OC1CN2CCC1CC2)C12CC3CC(CC(C3)C1)C2 (centres undefined) | inactive: -1.55%
Cc1cc(=O)[nH]c(N[N+](=O)[O-])n1 | inactive: 6.74%
COc1ccc(N/C(=N/P(=O)(N2CCOCC2)N2CCOCC2)N2CCOCC2)cc1 | inactive: -9.04%
O=C(O)C(=O)c1ccc(N(CCCl)CCCl)cc1 | inactive: -0.0855%
O=C(COc1ccccc1)OC1CN2CCC1CC2 (centres undefined) | inactive: -6.97%
O=C(Nc1ccncc1[N+](=O)[O-])c1ccc([N+](=O)[O-])cc1[N+](=O)[O-] | inactive: 11.5%
COP1(=S)c2c(C)nn(CCC#N)c2N=C(c2ccc(F)cc2)N1C (centres undefined) | inactive: 10.3%
CCC(C)N(CC(C)C)C(=S)SC(NC(C)=O)C(Cl)(Cl)Cl (centres undefined) | inactive: 1.24%
O=C(OC1CN2CCC1CC2)c1cccc([N+](=O)[O-])c1 (centres undefined) | inactive: 1.01%
CSc1ccc(Nc2c([N+](=O)[O-])cc([N+](=O)[O-])cc2[N+](=O)[O-])cc1 | inactive: -4.16%
CCOC(=O)c1ccc(NC(=O)C(C)(CCl)SC)cc1 (centres undefined) | inactive: -2.83%
COP(=O)(OC)N1CC1c1ccccc1 (centres undefined) | inactive: -0.61%
CCCCOc1ccc(C(=O)NCC2(N3CCCCC3)CCCCC2)cc1OC | inactive: -6.13%
O=C(O)C(O)c1ccc(N(CCCl)CCCl)cc1 (centres undefined) | inactive: 5.65%

SMILES | inhibition
CCOC(=O)Nc1ccc([As](=O)(O)O)c(O)c1 | inactive: 1.73%
CC1CCNP(=O)(N(CCCl)CCCl)O1 (centres undefined) | inactive: -0.231%
O=[N+]([O-])c1ccc(Nc2ccc(Oc3ccc([N+](=O)[O-])cc3[N+](=O)[O-])cc2)c([N+](=O)[O-])c1 | inactive: -8.9%
CCOC(=O)Nc1cccc([As](=O)(O)O)c1 | inactive: -0.0855%
Cc1nn(-c2ccccc2)c2c1P(=O)(N1CCOCC1)N(C)C(c1ccccc1)=N2 (centres undefined) | inactive: 11.4%
Cc1ccc(C(=O)OC2CN3CCC2CC3)cc1 (centres undefined) | inactive: -1.95%
CC1CCC(C(C)C)C(OP(=O)(Nc2ccccn2)c2ccccc2)C1 (centres undefined) | inactive: -2.13%
Nc1cccc([As](=O)(O)c2ccccc2)c1 | inactive: 9.11%
NS(=O)(=O)c1cccc(NC(=O)COC(=O)C(O)(c2ccccc2)c2ccccc2)c1 | inactive: 2.06%
O=P1(Nc2ccc(Br)cn2)COc2ccccc2OC1 | inactive: 5.27%
Cc1ccc(OCC(=O)OC2CN3CCC2CC3)cc1 (centres undefined) | inactive: -12.1%
O=[As](O)(c1cccs1)c1cccs1 | inactive: 5.89%
Cc1ccc(S(=O)(=O)N(CCCN)CCCc2c(C)nc(N)[nH]c2=O)cc1 | inactive: 2.5%
O=P1(Nc2ncccn2)COc2ccccc2OC1 | inactive: -8.9%
Clc1n[nH]nc1-c1nn[nH][15n]1 | inactive: -8.73%
O=P1(N(CCCl)CCCl)NCCC(C(F)(F)F)O1 (centres undefined) | inactive: -4.15%
CC(C)(C)C(=O)NC(Sc1ncccn1)C(Cl)(Cl)Cl (centres undefined) | inactive: 7.07%
CCC1=CC2Cc3nc4ccc(Cl)cc4c(N)c3C(C1)C2 (centres undefined) | inactive: -6.9%
O=P1(Nc2ccccn2)COc2ccccc2OC1 | inactive: 11.7%
CCOP(=O)(NC(=NC(C)c1ccccc1)NC(C)c1ccccc1)OCC (centres undefined) | inactive: 0.545%
CN(CCCl)Cc1cc(Cl)c(NC2=NCCN2)c(Cl)c1 | inactive: -3.99%
CN(C(=O)Cc1ccc(Cl)c(Cl)c1)[C@@H]1CCCC[C@H]1N1CCCC1 | inactive: 4.75%
CC(C)/C=N\N=C(\N)N[N+](=O)[O-] | inactive: 1.41%
O=[As](O)(c1cccc(O)c1)c1cccc(O)c1 | inactive: -8.82%
